Results reported in ChEMBL document CHEMBL1136518, “Potent, selective inhibitors of protein tyrosine phosphatase 1B” (Bioorg Med Chem Lett, 2003).

Biological target: T1, Tyrosine-protein phosphatase non-receptor type 2 (Homo sapiens, UniProt P17706)
T1 sequence (P17706 whole entry): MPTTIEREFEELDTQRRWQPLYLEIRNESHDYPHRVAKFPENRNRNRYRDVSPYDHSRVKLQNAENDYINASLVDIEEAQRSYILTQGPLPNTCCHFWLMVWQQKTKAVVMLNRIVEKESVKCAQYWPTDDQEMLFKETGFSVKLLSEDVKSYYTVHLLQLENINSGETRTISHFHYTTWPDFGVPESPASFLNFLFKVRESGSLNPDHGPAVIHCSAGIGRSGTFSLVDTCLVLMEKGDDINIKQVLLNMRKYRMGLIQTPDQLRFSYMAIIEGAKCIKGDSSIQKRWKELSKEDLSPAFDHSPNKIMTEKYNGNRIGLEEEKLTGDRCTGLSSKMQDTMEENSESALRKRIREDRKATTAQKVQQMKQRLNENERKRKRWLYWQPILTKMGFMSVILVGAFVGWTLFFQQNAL
Experiment: Inhibitory activity tested against T-cell Protein tyrosine phosphatase 2 (TCPTP)

Ki: 1000 nM
Structure (SMILES): CCc1cc(CC(NC(C)=O)C(=O)NCCCCC(=O)N[C@H](CCSC)C(=O)O)ccc1N(C(=O)C(=O)O)c1ccccc1C(=O)O (stereo partly specified)
